Source: US20130084328A1, “METHYLATED CODING AND NON-CODING RNA GENES AS DIAGNOSTIC AND THERAPEUTIC TOOLS FOR HUMAN MELANOMA” (Sanford-Burnham Medical Research Institute, priority 2011, published 2013)

Tested on: WM1552C melanoma cells
Test: RNA deep sequencing (SOLiD) of WM1552C/34b versus WM1552C/VO cells
Format: cell-based, human
Conditions: Bioscope; WM1552C/34b vs WM1552C/VO
Description: Oligonucleotides complimentary to the hsa-miR-34b genomic sequences were constructed (miR-34b pre For-GTGCTCGGTT TGTAGGCAGT G [SEQ ID NO:25] and miR-34b pre Rev-GTGCCTTGTT TTGATGGCAG TG [SEQ ID NO:26]), containing HindIII and BamHI sites on their respective 5′ and 3′ ends, then amplified from melanocyte genomic DNA (Amplitaq Gold, Applied Biosystems/Life Technologies). The product was then TOPO cloned into pCR4-TOPO (Invitrogen/Life Technologies). The vector construct was sequenced and the pre-hsa-miR-34b fragment was sub-cloned into pcDNA4/H1-3TetR using the HindIII and BamHI sites to create pcDNA4/H1-3TetR/miR-34b. […] The following morning, cells were selected with 600 μg/mL Zeocin for the following 15 days.
Total RNA was isolated from samples using Trizol (Invitrogen/Life Technologies) and fragmented through RNase III digestion. SOLiD sequence protocols (Applied Biosytems/Life Technologies) require reverse transcription of these RNAs, priming with a ligated primer, and the resulting cDNA amplified and size-selected in a 6% urea gel with the help of SYBR Gold dye for sequencing. The sequence libraries (150-200 bp size fragments) were further amplified using a bead-based emulsion PCR optimized to physically isolate a single bead/cDNA molecule. This enables massively parallel amplification of monoclonal DNA species. For RNA-seq experiments, we deposited approximately 90 million beads per sample onto a glass slide and analyzed them using a ligation-based sequencing technology. Data were mapped to the human genome using both BioScope and BFAST software packages and analyzed at the Burnham Institute Bioinformatics core facility.
Mapping of the SOLiD sequence data was performed using the standard pipeline of Blat-like Fast Accurate Search Tool (BFAST) (Horner et al., 2009) against the human genome (hg19) (Rhead et al., 2010). […] It then hashes the reads to a number of genomic locations based on the indices and performs detailed alignments between the reads and the genomic sequence at the hashed locations. The final output of BFAST contains the mapped genomic locations of each read and the qualities (represented via alignment scores) of the mappings.
The expression level of a gene can be calculated based on the mapping results. The BFAST algorithm successfully mapped ˜63% of the reads to the reference genome; among the mapped reads, ˜89% were uniquely mapped. Only uniquely mapped reads were considered to eliminate possible noise. For each gene (from the RefSeq annotation for hg19), a score was calculated as reads per kilobase of sequence per million reads (RPKM) (Mortazavi et al., 2008).
The predefined mapping protocol for SOLiD sequencing on BioScope 1.0 was also used. BioScope was able to map ˜63% of the reads to the reference genome, ˜83% uniquely. The output was then fed into the Partek Genomics Suite for analysis. Again, an RPKM score was computed for each gene.
The results of the two analysis pipelines were compared to arrive at a consensus. […] For this calculation, a pseudo-count of 1.0 was used to overcome divide by zero errors and to normalize the data at low RPKM values. […] The order of the genes was then directed by the corroborated fold change. For the open reading frames, a cutoff was established with a minimum fold change of +/−1.5 (1.5 for miRNAs, −1.2 for target genes). The transcript delta was also obtained; this was used to select genes for further testing, this cutoff was set at 10.0 for open reading frames (1.3 for miRNAs, −2.0 for target genes). Of particular interest are the target genes of miR-34b.

## miR-34b: nucleic acid exemplified by SEQ ID NO:2 (CAAUCACUAACUCCACUGCCAU); stably expressed in WM1552C from pcDNA4/H1-3TetR/miR-34b (WM1552C/34b) (CAAUCACUAACUCCACUGCCAU)
  ACAN Fold Change: 2.19
  ACAN Transcript Difference: 16.51
  ALCAM Fold Change: −2.33
  ALCAM Transcript Difference: 12.29
  AP2M1 Fold Change: −1.82
  AP2M1 Transcript Difference: 15.15
  CADM4 Fold Change: 1.79
  CADM4 Transcript Difference: 12.86
  CAVI Fold Change: −1.55
  CAVI Transcript Difference: 18.48
  COL6A1 Fold Change: −1.60
  COL6A1 Transcript Difference: 11.91
  COL9A3 Fold Change: 1.84
  COL9A3 Transcript Difference: 21.05
  CRIMI Fold Change: −1.66
  CRIMI Transcript Difference: 13.32
  CXCL1 Fold Change: −1.57
  CXCL1 Transcript Difference: 164.16
  CYR61 Fold Change: −1.63
  CYR61 Transcript Difference: 31.05
  DKK1 Fold Change: −9.27
  DKK1 Transcript Difference: 18.26
  FASN Fold Change: 1.73
  FASN Transcript Difference: 18.85
  FBNI Fold Change: −2.55
  FBNI Transcript Difference: 25.18
  FCRLA Fold Change: 2.85
  FCRLA Transcript Difference: 17.76
  FSTL1 Fold Change: −1.74
  FSTL1 Transcript Difference: 25.38
  HLA-DRA Fold Change: 1.73
  HLA-DRA Transcript Difference: 23.99
  HLA-DRBI Fold Change: 2.18
  HLA-DRBI Transcript Difference: 22.90
  ID3 Fold Change: −2.71
  ID3 Transcript Difference: 19.97
  IGFBP2 Fold Change: 1.80
  IGFBP2 Transcript Difference: 60.38
  IGFBP7 Fold Change: −2.09
  IGFBP7 Transcript Difference: 50.32
  IL1B Fold Change: −7.58
  IL1B Transcript Difference: 221.43
  IL6 Fold Change: −1.72
  IL6 Transcript Difference: 15.64
  INHBA Fold Change: −9.48
  INHBA Transcript Difference: 12.28
  ITGA3 Fold Change: −3.63
  ITGA3 Transcript Difference: 18.17
  ITGB5 Fold Change: −1.71
  ITGB5 Transcript Difference: 13.47
  KLF9 Fold Change: 1.61
  KLF9 Transcript Difference: 14.83
  LOXL2 Fold Change: −1.75
  LOXL2 Transcript Difference: 60.13
  LYPD1 Fold Change: −3.86
  LYPD1 Transcript Difference: 14.43
  MARCKSLI Fold Change: 1.68
  MARCKSLI Transcript Difference: 12.59
  MIA Fold Change: 1.90
  MIA Transcript Difference: 37.10
  MIR20B Fold Change: 2.78
  MIR20B Transcript Difference: 6.06
  MIR34B Fold Change: 3.26
  MIR34B Transcript Difference: 11.50
  MIR134 Fold Change: 3.02
  MIR134 Transcript Difference: 6.50
  MIR140 Fold Change: 3.65
  MIR140 Transcript Difference: 21.18
  MIR149 Fold Change: 2.59
  MIR149 Transcript Difference: 4.50
  MIR154 Fold Change: 3.14
  MIR154 Transcript Difference: 6.63
  MIR181D Fold Change: 1.51
  MIR181D Transcript Difference: 1.32
  MIR199B Fold Change: 2.68
  MIR199B Transcript Difference: 5.06
  MIR301A Fold Change: 2.17
  MIR301A Transcript Difference: 3.86
  MIR323 Fold Change: 1.57
  MIR323 Transcript Difference: 1.76
  MIR362 Fold Change: 1.70
  MIR362 Transcript Difference: 2.09
  MIR376A2 Fold Change: 1.82
  MIR376A2 Transcript Difference: 2.78
  MIR380 Fold Change: 1.54
  MIR380 Transcript Difference: 1.65
  MIR382 Fold Change: 1.72
  MIR382 Transcript Difference: 2.70
  MIR409 Fold Change: 3.50
  MIR409 Transcript Difference: 12.15
  MIR410 Fold Change: 2.30
  MIR410 Transcript Difference: 3.86
  MIR425 Fold Change: 1.62
  MIR425 Transcript Difference: 1.82
  MIR431 Fold Change: 1.90
  MIR431 Transcript Difference: 3.63
  MIR432 Fold Change: 2.38
  MIR432 Transcript Difference: 4.17
  MIR453 Fold Change: 2.44
  MIR453 Transcript Difference: 4.29
  MIR487A Fold Change: 1.83
  MIR487A Transcript Difference: 2.96
  MIR494 Fold Change: 2.72
  MIR494 Transcript Difference: 5.38
  MIR495 Fold Change: 2.35
  MIR495 Transcript Difference: 4.14
  MIR496 Fold Change: 1.90
  MIR496 Transcript Difference: 3.37
  MIR501 Fold Change: 1.52
  MIR501 Transcript Difference: 1.44
  MIR518A2 Fold Change: 1.74
  MIR518A2 Transcript Difference: 2.74
  MIR656 Fold Change: 1.64
  MIR656 Transcript Difference: 2.08
  MIR660 Fold Change: 2.65
  MIR660 Transcript Difference: 4.70
  MIR663B Fold Change: 4.48
  MIR663B Transcript Difference: 35.55
  MIR663 Fold Change: 12.50
  MIR663 Transcript Difference: 70.74
  MIR1197 Fold Change: 1.83
  MIR1197 Transcript Difference: 2.86
  MIR1205 Fold Change: 1.51
  MIR1205 Transcript Difference: 1.32
  MIR1312 Fold Change: 3.16
  MIR1312 Transcript Difference: 9.85
  MMP14 Fold Change: −1.54
  MMP14 Transcript Difference: 14.10
  MMPS Fold Change: 2.80
  MMPS Transcript Difference: 12.14
  NT5E Fold Change: 1.55
  NT5E Transcript Difference: 18.87
  PDE1C Fold Change: −1.66
  PDE1C Transcript Difference: 16.34
  PTTGHP Fold Change: −1.73
  PTTGHP Transcript Difference: 19.63
  RCANI Fold Change: 2.38
  RCANI Transcript Difference: 44.75
  RPL24 Fold Change: 1.52
  RPL24 Transcript Difference: 16.61
  RPL37A Fold Change: 1.70
  RPL37A Transcript Difference: 41.46
  S100A16 Fold Change: −2.86
  S100A16 Transcript Difference: 27.00
  S100B Fold Change: 2.45
  S100B Transcript Difference: 70.71
  SEMA3C Fold Change: −1.61
  SEMA3C Transcript Difference: 14.88
  SERPINA3 Fold Change: 2.37
  SERPINA3 Transcript Difference: 13.31
  SERPINB2 Fold Change: −3.68
  SERPINB2 Transcript Difference: 14.12
  SRGN Fold Change: −5.87
  SRGN Transcript Difference: 17.37
  STC1 Fold Change: −22.72
  STC1 Transcript Difference: 11.88
  STC2 Fold Change: −4.44
  STC2 Transcript Difference: 12.45
  TGFBI Fold Change: −1.58
  TGFBI Transcript Difference: 23.76
  THBS2 Fold Change: 1.55
  THBS2 Transcript Difference: 123.34
  TNFRSF21 Fold Change: −4.00
  TNFRSF21 Transcript Difference: 25.16
  TNS3 Fold Change: −1.56
  TNS3 Transcript Difference: 37.76
  TXNIP Fold Change: −2.33
  TXNIP Transcript Difference: 30.21
  UGCG Fold Change: −1.76
  UGCG Transcript Difference: 19.21
  WNT5A Fold Change: −2.16
  WNT5A Transcript Difference: 18.11
